The target of one assay is CDK14/Cyclin Y (Homo sapiens, UniProt O94921). Kind of assay: NanoBRET live-cell target engagement, CDK14-NanoLuc/Cyclin Y in HEK-293. The following applies: 10µM. Background: In BRET a luciferase serves as donor, and the signal depends on an acceptor being close.
For another assay, the target named is CDK18/Cyclin Y (Homo sapiens, UniProt Q07002). Kind of assay: NanoBRET live-cell target engagement, CDK18-NanoLuc/Cyclin Y in HEK-293. The following applies: 10µM.
The target of the next assay is CDK17/Cyclin Y (Homo sapiens, UniProt Q00537). Kind of assay: NanoBRET live-cell target engagement, CDK17-NanoLuc/Cyclin Y in HEK-293. The note with it: 10µM.
Another assay addresses CDK15/Cyclin Y (Homo sapiens, UniProt Q96Q40). Kind of assay: NanoBRET live-cell target engagement, NanoLuc-CDK15/Cyclin Y in HEK-293. The following applies: for IC50: IC50 (nM), CDK15/Y.
The target in the next assay is CDK12/Cyclin K (Homo sapiens, UniProt Q9NYV4). Kind of assay: NanoBRET live-cell target engagement, CDK12-NanoLuc/Cyclin K in HEK-293. The note with it: read-out: CDK12 occupancy at 10 µM.
The target in another assay is CDK13/Cyclin K (Homo sapiens, UniProt Q14004). Kind of assay: NanoBRET live-cell target engagement, CDK13-NanoLuc/Cyclin K in HEK-293. The note with it: read-out: CDK13 occupancy at 10 µM.
The target of a further assay is CDK1/Cyclin E1 (Homo sapiens, UniProt P06493). Kind of assay: NanoBRET live-cell target engagement, CDK1-NanoLuc/Cyclin E1 in HEK-293.
In the next assay the target is CDK9/Cyclin K (Homo sapiens, UniProt P50750). Kind of assay: NanoBRET live-cell target engagement, NanoLuc-CDK9/Cyclin K in HEK-293. Type of assay: binding. The following applies: for IC50: CDK9/K.
In the next assay the target is CDK4/Cyclin D1 (Homo sapiens, UniProt P11802). Kind of assay: NanoBRET live-cell target engagement, NanoLuc-CDK4/Cyclin D1 in HEK-293.
The next assay addresses CDK3/Cyclin E1 (Homo sapiens, UniProt Q00526). Kind of assay: NanoBRET live-cell target engagement, CDK3-NanoLuc/Cyclin E1 in HEK-293. The following applies: read-out: Inhibition at 10µM (%), CDK3/E1.
Setting [1] is: read-out: Inhibition at 10µM (%) Replicate 2.
Setting [2] is: read-out: Inhibition at 10µM (%).
The mark [3] stands for this setting: read-out: IC50 (nM) Average*, n=3 average ± SEM, n=2 average to 2 significant figures.
Setting [4] is: read-out: IC50 (nM) Replicate 1.
The mark [5] stands for this setting: read-out: IC50 (nM) Replicate 2.

Protein sequences, listed by entry. Tags and fused reporters are not part of them. Lines headed by an entry give the natural chain unless they say otherwise; changes in a name come on top. Chains listed by the source or under a name are the forms on record and can include a tag or linker. Residues count along the entry.
UniProt O94921: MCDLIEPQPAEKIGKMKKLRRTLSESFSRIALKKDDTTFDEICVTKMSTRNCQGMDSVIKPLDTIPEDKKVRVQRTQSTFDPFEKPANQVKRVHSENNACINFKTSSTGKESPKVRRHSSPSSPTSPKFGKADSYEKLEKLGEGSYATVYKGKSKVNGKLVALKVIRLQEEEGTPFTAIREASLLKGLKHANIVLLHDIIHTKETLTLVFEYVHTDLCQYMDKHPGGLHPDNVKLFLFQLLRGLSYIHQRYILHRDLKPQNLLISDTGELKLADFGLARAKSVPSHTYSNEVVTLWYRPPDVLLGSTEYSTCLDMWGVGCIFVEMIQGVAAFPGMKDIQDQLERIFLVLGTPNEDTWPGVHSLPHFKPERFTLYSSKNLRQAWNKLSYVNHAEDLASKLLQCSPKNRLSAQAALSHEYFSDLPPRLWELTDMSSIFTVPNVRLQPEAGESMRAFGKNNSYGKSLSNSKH
UniProt Q07002: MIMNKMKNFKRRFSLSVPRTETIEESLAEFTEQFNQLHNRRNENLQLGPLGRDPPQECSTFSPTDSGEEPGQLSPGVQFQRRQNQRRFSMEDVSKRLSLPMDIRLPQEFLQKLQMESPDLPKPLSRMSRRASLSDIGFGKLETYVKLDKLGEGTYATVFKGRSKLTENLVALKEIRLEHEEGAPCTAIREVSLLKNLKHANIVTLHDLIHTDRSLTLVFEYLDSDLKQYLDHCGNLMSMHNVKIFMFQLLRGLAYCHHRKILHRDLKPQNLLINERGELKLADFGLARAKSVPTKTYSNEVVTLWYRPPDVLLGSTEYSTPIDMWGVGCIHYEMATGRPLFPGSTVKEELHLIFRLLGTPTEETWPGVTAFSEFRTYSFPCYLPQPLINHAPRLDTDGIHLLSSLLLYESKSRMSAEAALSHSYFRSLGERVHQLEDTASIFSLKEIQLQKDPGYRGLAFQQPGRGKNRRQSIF
UniProt Q00537: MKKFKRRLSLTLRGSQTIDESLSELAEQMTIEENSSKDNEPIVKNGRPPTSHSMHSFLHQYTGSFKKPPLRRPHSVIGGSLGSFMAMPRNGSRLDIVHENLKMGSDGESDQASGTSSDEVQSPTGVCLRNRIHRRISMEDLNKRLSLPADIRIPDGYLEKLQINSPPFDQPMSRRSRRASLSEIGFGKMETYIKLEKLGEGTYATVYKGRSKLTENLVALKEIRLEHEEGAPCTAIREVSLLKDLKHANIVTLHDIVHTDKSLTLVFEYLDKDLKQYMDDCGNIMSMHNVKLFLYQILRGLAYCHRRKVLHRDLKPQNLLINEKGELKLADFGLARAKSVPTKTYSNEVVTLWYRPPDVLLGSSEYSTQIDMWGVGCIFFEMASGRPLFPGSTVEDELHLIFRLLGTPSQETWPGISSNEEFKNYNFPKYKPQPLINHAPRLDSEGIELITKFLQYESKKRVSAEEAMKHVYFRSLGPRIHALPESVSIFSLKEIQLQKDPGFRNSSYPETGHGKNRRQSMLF
UniProt Q96Q40: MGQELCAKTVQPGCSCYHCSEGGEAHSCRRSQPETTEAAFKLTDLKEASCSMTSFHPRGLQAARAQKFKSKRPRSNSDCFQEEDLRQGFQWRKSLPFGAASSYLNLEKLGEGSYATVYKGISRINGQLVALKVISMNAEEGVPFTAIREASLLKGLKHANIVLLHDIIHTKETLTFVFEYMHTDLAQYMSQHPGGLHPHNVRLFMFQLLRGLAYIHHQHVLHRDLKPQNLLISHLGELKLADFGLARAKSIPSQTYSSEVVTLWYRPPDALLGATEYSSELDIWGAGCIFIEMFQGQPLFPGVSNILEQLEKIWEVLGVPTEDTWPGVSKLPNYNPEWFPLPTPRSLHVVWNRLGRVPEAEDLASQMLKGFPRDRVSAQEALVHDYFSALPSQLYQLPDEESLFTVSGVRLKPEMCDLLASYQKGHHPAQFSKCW
UniProt Q9NYV4, 1-1481 isoform Q9NYV4-2: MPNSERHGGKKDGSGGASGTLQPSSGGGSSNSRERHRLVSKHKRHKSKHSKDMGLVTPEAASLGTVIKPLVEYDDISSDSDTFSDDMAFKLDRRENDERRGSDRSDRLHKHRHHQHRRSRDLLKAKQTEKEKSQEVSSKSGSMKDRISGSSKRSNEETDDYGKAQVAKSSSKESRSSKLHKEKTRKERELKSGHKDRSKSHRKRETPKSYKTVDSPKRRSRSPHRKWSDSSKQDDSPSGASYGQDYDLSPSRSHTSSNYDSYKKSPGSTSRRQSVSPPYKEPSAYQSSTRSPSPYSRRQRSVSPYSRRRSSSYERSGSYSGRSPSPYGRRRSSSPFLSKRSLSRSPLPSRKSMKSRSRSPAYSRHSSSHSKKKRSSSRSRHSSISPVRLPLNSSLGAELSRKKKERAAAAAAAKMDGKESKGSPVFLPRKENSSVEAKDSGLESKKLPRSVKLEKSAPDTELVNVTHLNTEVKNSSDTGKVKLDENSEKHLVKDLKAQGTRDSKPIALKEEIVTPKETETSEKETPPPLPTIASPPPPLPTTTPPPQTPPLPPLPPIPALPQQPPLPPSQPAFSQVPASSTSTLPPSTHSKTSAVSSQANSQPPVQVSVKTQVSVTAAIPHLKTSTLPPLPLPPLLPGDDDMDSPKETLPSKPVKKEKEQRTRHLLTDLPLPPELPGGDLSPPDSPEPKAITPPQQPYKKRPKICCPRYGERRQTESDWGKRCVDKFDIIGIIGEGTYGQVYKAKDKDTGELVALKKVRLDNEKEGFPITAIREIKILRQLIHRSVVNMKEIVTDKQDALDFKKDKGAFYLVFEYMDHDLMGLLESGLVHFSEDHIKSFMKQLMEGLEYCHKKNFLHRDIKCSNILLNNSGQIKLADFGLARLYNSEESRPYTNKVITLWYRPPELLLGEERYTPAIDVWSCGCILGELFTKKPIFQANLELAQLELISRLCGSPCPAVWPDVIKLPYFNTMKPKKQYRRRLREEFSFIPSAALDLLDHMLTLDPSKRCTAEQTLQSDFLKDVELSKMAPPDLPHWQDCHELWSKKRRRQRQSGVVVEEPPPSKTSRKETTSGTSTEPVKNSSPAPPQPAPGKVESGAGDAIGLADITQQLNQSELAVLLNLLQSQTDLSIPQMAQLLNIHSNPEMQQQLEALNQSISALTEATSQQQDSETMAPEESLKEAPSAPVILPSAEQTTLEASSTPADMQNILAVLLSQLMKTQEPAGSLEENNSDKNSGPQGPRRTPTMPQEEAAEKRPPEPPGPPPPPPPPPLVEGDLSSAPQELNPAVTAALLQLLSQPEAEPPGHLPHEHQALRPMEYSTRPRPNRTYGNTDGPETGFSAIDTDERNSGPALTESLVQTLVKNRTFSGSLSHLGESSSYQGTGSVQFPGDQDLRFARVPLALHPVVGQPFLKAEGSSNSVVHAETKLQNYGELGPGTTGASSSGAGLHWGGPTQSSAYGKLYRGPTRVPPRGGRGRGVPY
UniProt Q14004, other isoform, or with tags, fused parts or gaps: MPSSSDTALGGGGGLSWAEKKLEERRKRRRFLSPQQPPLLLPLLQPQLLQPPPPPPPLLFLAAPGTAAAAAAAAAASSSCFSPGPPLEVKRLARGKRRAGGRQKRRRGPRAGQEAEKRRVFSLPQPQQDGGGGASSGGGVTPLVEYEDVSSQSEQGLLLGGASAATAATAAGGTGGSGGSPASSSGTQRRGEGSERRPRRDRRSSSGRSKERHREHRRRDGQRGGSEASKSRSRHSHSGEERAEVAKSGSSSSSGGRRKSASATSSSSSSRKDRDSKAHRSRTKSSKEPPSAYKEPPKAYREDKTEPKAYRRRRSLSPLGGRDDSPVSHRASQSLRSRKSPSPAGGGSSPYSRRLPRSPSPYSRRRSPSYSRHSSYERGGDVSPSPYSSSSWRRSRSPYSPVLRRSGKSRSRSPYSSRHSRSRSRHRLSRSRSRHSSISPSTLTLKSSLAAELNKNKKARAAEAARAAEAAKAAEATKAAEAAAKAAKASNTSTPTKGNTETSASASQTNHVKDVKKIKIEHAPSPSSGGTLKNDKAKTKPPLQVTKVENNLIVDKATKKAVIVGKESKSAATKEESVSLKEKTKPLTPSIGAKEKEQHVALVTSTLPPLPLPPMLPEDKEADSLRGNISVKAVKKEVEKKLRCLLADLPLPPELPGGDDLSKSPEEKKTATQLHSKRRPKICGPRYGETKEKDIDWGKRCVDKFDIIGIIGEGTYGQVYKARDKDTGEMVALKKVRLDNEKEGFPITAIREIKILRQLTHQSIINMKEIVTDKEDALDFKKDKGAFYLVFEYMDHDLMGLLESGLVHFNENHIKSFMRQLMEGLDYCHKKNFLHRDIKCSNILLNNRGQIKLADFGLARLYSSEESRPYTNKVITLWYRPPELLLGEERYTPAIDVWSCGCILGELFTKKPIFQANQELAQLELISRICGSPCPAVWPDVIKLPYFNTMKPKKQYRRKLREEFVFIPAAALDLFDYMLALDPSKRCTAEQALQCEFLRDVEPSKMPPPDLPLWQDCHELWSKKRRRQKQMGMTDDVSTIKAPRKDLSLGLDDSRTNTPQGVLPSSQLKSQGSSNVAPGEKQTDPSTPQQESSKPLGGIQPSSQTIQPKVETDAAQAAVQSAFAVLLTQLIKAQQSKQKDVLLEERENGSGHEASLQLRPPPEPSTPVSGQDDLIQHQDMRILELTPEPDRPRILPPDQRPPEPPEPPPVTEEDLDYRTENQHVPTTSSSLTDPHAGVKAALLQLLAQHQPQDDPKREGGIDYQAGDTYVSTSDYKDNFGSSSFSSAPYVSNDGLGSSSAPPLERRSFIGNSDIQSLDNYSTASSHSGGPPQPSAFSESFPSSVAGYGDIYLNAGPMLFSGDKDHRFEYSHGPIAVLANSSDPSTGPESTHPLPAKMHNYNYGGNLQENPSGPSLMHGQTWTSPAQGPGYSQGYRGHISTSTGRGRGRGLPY
UniProt P06493, whole entry: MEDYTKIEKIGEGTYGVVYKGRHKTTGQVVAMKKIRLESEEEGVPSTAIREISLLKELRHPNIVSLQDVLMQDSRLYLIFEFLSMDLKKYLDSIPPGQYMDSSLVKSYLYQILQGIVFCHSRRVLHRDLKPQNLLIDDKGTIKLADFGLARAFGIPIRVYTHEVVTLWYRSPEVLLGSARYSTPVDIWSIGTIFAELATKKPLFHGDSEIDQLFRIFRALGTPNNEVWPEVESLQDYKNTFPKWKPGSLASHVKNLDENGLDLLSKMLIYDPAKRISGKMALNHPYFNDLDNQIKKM
UniProt P50750, whole entry: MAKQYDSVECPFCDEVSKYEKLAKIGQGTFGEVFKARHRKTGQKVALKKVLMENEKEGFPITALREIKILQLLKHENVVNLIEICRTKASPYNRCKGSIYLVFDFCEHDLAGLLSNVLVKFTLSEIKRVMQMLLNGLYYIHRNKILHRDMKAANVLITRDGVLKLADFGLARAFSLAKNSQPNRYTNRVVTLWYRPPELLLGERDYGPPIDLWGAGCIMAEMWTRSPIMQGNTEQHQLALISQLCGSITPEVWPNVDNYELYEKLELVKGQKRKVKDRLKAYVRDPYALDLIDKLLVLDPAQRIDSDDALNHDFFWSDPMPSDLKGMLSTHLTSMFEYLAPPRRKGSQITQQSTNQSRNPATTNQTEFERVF
UniProt P11802: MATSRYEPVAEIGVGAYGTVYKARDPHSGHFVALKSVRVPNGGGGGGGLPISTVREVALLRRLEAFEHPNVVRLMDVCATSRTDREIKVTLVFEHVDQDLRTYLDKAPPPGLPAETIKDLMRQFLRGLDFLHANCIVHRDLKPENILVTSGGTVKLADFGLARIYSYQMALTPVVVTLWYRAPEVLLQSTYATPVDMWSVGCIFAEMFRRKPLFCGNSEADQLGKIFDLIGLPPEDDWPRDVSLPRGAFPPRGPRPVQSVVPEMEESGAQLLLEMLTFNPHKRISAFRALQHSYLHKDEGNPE
UniProt Q00526: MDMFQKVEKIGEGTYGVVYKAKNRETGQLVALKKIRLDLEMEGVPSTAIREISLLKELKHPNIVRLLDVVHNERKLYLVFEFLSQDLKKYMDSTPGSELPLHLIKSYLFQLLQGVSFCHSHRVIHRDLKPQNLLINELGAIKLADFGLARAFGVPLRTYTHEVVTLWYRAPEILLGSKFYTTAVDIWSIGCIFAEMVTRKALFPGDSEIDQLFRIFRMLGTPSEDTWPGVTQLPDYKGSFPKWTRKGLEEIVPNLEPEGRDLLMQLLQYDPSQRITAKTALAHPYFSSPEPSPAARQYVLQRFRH

Structures are written as SMILES. Several values for one entry are separate records, joined by “and”; a condition that tells them apart may be missing. Equal entries are not always repeated. Where two headings read alike, the source gives them in different places.

Regarding `CCN1CCN(Cc2ccc(NC(=O)Nc3ccc(Oc4cc(NC)ncn4)cc3)cc2C(F)(F)F)CC1` [AST-487], the inhibition at 10 µM at CDK14/Cyclin Y (read-out: Inhibition at 10µM (%) Average, CDK14/Y, average of replicates) came to 75.7%; on CDK14/Cyclin Y (read-out: Inhibition at 10µM (%) Replicate 1, CDK14/Y), 65.9%; at CDK14/Cyclin Y (read-out: Inhibition at 10µM (%) Replicate 2, CDK14/Y) it was 85.6%; on CDK18/Cyclin Y (read-out: Inhibition at 10µM (%) Average, CDK18/Y, average of replicates), 93.6%; on CDK18/Cyclin Y (read-out: Inhibition at 10µM (%) Replicate 1, CDK18/Y), 95.4%; on CDK18/Cyclin Y (read-out: Inhibition at 10µM (%) Replicate 2, CDK18/Y), 91.8%. The inhibition at 10 µM on CDK17/Cyclin Y (read-out: Inhibition at 10µM (%) Average, CDK17/Y, average of replicates) is 90.8%; on CDK17/Cyclin Y (read-out: Inhibition at 10µM (%) Replicate 1, CDK17/Y), 94.8%; at CDK17/Cyclin Y (read-out: Inhibition at 10µM (%) Replicate 2, CDK17/Y), 86.8%; on CDK15/Cyclin Y (read-out: Inhibition at 10µM (%) Average, CDK15/Y, 10µM, average of replicates), 75.3%; at CDK15/Cyclin Y (read-out: Inhibition at 10µM (%) Replicate 1, CDK15/Y, 10µM), 64.7%; at CDK15/Cyclin Y (read-out: Inhibition at 10µM (%) Replicate 2, CDK15/Y, 10µM) it was 85.8%.

As usually defined, the IC50 is the concentration that inhibits the measured activity by half. On to `CCc1cnn2c(NCc3ccc[n+]([O-])c3)cc(N3CCCC[C@H]3CCO)nc12` [Dinaciclib], for which the receptor occupancy at 10 µM at CDK12/Cyclin K and on CDK13/Cyclin K was ~50% throughout. The IC50 on CDK15/Cyclin Y (average (± SEM where n=3)) was 150 nM; against CDK15/Cyclin Y (experiment 1), 167 nM; against CDK15/Cyclin Y (experiment 2), 130 nM. Further, the inhibition at 10 µM on CDK15/Cyclin Y (read-out: Inhibition at 10µM (%), CDK15/Y, average) was found to be 94%; on CDK15/Cyclin Y (read-out: Inhibition at 10µM (%), CDK15/Y, experiment 1), 94.4%; on CDK15/Cyclin Y (read-out: Inhibition at 10µM (%), CDK15/Y, experiment 2), 93.5%.

As for `O=C(NC1CCNCC1)c1[nH]ncc1NC(=O)c1c(Cl)cccc1Cl` [AT7519], the inhibition at 10 µM worked out at 79.5% at CDK1/Cyclin E1 (read-out: Inhibition at 10µM (%) Average), 77.2% at CDK1/Cyclin E1 (read-out: Inhibition at 10µM (%) Replicate 1) and 81.9% at CDK1/Cyclin E1 (setting [1]).

`Cc1ncc(-c2ccnc(Nc3ccc(S(C)(=O)=O)cc3)n2)n1C(C)C` [AZD5438]: the inhibition at 10 µM at CDK9/Cyclin K (setting [1]) worked out at 95.9%.

As a reminder, the Inhibition is the change of the read-out against control, counted positive when it falls. Read a low Inhibition as little suppression. On to `NS(=O)(=O)c1ccc(Nc2nc(OCC3CCCCC3)c3nc[nH]c3n2)cc1` [NU6102], for which the “Inhibition at 10µM (%)” value on CDK4/Cyclin D1 (10 µM) was 82.7% and 86.8%. Further, the inhibition at 10 µM at CDK4/Cyclin D1 (setting [2]) was determined as 90.9%; on CDK3/Cyclin E1 (average) it was 85.4%; on CDK3/Cyclin E1 (experiment 1), 75.9%; on CDK3/Cyclin E1 (experiment 2), 94.8%.

Regarding `CNC1CCN(C(=O)c2ccc(Nc3ncc(F)c(-c4cnc(C)n4C(C)C)n3)cc2)C1` (stereo not shown) [AZD5597], the half-inhibitory concentration (IC50) on CDK9/Cyclin K (setting [3]) stood at 9 nM; on CDK9/Cyclin K (setting [4]) it was 10 nM; at CDK9/Cyclin K (setting [5]) it was 7.9 nM.

With `CC(C)c1cnn2c(NCc3ccccc3)cc(NC[C@H]3CCNC[C@@H]3O)nc12` [CT7001], the “Inhibition at 10µM (%)” value at CDK1/Cyclin E1 (10 µM) was 68.4% and 64.3%. Moreover, at CDK1/Cyclin E1 (setting [2]), the inhibition at 10 µM is 60.3%.

As for `CC(C)c1cnn2c(NCc3ccccc3)cc(N[C@@H](CO)[C@H](O)CO)nc12` [BS-194], the half-inhibitory concentration (IC50) at CDK9/Cyclin K (setting [3]) turned out to be 20 nM; at CDK9/Cyclin K (setting [4]), 22 nM; on CDK9/Cyclin K (setting [5]) it was 17 nM.

The values above are taken from PMC7265341 (2020).
